Reference: ChEMBL document CHEMBL2218924, “A broad activity screen in support of a chemogenomic map for kinase signalling research and drug discovery” (Biochem J, 2013)
For part of these data: Most of the strong results are listed elsewhere, so they are rarer here than in the full data. The rule behind the calls is not given here. Only a part is listed here, and it is no random draw.

Protein sequences, listed by entry. Tags and fused reporters are not part of them. Lines headed by an entry give the natural chain unless they say otherwise; changes in a name come on top.
UniProt P14635, whole entry, looked up: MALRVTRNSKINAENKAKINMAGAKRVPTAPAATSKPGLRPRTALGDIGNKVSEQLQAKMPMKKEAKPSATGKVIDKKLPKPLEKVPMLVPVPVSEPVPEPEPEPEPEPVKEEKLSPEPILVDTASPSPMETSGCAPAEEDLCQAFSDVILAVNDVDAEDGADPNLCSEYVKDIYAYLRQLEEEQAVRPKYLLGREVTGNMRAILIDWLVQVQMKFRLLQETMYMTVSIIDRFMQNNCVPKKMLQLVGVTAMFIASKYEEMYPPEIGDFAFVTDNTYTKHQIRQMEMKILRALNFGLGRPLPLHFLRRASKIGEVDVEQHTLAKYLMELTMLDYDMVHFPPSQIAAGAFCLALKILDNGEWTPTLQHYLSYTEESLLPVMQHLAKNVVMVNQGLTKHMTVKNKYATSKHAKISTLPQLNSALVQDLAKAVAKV
UniProt P67870, whole entry, looked up: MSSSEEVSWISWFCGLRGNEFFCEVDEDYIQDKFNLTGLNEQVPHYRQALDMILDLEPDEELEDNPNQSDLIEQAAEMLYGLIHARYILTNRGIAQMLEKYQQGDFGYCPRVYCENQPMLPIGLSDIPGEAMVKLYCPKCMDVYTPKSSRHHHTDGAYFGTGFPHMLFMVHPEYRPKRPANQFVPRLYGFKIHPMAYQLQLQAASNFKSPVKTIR
UniProt P68400, whole entry, looked up: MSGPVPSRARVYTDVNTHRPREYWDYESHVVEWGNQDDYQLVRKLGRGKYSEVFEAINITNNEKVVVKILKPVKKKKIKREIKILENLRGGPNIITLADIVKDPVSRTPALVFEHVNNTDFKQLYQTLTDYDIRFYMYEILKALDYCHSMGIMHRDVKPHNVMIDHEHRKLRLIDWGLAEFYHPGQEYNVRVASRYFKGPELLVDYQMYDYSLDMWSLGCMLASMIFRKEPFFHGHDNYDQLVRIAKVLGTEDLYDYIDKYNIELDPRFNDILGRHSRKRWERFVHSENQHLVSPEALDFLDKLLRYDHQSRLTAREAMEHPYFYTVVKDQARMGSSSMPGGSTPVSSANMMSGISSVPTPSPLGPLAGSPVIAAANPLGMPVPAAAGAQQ
UniProt P19784, whole entry, looked up: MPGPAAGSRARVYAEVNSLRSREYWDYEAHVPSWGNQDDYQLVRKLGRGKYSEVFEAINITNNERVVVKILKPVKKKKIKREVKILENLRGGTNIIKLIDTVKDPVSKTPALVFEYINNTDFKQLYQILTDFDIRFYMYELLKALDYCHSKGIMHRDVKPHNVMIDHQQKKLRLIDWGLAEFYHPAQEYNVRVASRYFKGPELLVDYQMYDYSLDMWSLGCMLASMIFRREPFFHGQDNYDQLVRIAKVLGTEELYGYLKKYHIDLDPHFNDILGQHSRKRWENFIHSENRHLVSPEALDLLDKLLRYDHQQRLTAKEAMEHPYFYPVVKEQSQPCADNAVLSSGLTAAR
UniProt Q16566: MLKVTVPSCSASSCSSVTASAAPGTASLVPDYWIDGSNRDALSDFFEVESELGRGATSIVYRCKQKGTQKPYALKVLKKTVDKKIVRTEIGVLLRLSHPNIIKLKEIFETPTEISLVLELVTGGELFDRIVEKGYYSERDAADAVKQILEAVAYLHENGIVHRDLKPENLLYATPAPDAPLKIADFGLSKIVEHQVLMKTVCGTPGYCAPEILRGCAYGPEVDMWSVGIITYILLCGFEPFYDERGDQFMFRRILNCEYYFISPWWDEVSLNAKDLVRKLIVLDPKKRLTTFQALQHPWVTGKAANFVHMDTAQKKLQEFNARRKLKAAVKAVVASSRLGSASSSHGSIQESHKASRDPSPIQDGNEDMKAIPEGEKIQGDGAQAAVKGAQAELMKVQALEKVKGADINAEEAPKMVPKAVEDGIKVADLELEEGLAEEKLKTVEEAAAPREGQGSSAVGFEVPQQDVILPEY
UniProt P54764, whole entry: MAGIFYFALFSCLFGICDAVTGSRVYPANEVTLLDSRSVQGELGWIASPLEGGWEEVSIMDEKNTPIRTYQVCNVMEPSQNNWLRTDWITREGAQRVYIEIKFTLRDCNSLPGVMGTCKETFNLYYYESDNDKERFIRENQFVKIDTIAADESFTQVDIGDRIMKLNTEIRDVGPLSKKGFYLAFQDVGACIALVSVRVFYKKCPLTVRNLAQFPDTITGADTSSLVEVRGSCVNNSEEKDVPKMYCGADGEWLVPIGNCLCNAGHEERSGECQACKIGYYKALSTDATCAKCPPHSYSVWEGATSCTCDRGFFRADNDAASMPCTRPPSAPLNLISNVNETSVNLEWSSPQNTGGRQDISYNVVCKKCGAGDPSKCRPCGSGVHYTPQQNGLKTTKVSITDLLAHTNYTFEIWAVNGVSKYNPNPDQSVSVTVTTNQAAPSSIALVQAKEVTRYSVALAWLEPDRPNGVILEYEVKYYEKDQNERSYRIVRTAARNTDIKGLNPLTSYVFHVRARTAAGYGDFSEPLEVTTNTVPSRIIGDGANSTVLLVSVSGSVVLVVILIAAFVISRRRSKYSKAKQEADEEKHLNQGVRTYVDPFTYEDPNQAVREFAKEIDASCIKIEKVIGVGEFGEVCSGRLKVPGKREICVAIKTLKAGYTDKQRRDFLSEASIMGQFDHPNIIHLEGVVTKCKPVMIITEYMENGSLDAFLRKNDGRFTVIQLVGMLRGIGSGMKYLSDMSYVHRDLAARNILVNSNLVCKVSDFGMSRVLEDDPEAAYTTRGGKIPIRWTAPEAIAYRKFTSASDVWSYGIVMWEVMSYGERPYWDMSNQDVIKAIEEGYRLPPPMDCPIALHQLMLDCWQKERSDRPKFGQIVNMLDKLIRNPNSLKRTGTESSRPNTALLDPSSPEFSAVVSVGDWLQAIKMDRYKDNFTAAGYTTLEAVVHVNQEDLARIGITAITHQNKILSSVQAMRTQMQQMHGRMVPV
UniProt P49840: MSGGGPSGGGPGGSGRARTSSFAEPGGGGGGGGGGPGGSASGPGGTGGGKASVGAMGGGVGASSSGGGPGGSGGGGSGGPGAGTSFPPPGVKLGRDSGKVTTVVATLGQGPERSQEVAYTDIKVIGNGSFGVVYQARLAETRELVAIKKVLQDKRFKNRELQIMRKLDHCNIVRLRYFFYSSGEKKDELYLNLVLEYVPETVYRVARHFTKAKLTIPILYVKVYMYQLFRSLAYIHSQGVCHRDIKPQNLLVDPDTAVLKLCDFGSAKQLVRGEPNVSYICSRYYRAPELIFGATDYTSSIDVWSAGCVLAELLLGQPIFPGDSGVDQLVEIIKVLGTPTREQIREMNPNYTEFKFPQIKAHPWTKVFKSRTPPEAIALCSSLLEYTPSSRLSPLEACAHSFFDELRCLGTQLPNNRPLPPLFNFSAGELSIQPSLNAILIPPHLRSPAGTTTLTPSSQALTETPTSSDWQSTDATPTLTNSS
UniProt P49841: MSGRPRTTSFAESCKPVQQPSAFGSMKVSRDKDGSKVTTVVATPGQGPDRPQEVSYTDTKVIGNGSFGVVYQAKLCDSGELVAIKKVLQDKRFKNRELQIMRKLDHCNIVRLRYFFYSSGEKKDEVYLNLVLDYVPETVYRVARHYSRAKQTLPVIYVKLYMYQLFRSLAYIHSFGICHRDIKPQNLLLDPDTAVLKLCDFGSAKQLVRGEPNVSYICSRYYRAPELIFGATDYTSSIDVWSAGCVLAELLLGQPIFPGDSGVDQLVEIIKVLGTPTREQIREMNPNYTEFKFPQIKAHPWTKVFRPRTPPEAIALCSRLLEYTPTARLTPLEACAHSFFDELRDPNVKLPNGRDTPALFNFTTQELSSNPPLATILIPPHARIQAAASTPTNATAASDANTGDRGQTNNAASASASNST
UniProt Q9P1W9: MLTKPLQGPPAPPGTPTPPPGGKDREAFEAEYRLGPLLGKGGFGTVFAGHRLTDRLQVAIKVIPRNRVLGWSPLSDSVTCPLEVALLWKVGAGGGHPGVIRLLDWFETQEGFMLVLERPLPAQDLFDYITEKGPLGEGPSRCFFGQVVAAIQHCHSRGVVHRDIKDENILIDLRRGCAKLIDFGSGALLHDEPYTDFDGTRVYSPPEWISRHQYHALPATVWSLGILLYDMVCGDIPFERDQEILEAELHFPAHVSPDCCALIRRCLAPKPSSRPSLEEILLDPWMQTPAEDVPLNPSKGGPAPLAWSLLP
UniProt P53350, whole entry: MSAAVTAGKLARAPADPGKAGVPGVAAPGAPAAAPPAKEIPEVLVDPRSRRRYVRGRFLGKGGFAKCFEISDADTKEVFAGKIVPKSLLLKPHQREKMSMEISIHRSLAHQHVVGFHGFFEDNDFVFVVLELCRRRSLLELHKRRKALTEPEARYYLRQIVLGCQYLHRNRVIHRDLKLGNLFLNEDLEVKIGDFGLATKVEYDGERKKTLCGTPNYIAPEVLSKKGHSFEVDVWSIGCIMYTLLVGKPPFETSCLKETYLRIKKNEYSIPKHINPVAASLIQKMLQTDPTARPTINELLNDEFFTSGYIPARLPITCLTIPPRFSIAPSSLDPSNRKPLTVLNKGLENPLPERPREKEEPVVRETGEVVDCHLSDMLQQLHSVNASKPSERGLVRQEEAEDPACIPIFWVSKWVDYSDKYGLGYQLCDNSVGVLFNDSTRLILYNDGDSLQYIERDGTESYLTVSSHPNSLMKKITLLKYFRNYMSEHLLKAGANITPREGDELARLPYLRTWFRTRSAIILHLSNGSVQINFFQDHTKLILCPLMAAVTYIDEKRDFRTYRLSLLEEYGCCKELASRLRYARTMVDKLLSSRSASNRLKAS
UniProt Q9H4B4: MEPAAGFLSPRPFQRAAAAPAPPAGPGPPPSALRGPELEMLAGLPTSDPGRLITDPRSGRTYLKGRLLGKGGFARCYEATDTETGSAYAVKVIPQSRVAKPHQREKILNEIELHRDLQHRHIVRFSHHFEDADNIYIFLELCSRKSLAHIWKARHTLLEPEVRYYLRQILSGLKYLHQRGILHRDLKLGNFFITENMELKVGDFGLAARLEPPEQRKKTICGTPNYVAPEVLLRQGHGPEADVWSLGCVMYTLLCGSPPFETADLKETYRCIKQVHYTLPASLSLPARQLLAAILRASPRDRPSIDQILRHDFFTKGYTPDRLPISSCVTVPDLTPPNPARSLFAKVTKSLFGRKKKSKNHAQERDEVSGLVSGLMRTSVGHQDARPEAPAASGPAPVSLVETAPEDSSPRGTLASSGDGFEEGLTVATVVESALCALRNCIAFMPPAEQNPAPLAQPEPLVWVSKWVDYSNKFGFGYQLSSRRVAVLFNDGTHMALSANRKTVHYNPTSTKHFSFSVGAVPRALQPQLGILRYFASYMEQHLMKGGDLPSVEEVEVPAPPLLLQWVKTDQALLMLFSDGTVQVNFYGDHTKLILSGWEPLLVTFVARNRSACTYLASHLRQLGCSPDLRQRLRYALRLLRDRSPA
UniProt Q15759, whole entry: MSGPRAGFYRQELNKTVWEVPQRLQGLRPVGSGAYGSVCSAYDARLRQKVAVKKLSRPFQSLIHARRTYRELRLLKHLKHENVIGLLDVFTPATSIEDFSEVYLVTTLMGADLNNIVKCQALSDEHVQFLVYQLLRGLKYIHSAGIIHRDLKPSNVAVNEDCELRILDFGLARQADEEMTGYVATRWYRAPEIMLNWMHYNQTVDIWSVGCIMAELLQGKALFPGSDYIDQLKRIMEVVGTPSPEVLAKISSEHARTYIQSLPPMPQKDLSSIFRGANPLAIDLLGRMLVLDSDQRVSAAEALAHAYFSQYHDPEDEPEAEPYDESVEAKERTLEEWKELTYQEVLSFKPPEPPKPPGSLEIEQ
UniProt Q96SB4, whole entry: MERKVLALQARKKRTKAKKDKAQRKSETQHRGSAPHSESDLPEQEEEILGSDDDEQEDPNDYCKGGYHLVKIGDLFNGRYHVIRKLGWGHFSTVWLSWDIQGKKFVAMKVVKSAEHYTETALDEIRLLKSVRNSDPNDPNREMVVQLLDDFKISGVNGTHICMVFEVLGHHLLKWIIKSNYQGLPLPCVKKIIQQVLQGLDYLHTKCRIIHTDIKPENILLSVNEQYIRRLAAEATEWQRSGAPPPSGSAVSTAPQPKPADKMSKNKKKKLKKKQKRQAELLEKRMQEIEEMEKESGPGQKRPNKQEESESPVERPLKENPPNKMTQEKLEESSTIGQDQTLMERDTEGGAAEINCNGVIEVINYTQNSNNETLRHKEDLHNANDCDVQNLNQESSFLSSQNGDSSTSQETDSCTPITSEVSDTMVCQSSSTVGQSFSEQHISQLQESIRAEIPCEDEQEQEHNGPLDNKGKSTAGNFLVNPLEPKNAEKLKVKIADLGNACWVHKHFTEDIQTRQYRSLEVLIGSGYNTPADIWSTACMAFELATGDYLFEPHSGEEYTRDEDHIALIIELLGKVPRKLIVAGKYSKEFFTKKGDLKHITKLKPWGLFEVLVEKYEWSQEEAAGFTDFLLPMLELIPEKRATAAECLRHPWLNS

Key:
[1] = molecular target: Protein kinase C zeta type (Homo sapiens) (UniProt Q05513); settings: at 1 µM
[2] = molecular target: Cyclin-dependent kinase 1/cyclin B1 (Homo sapiens) (UniProt P06493+P14635); settings: at 1 µM
[3] = molecular target: Casein kinase II (Homo sapiens) (UniProt P67870+P68400+P19784); settings: at 1 µM
[4] = molecular target: Casein kinase II subunit alpha' (Homo sapiens) (UniProt P19784); settings: at 1 µM;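 note: residual kinase activity of CSNK2A2 expressed as percent of untreated control, so lower values mean stronger inhibition, with Jnk Inhibitor II at 100 µM as reference inhibitor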
[5] = molecular target: Calcium/calmodulin-dependent protein kinase type IV (Homo sapiens) (UniProt Q16566); settings: at 1 µM
[6] = molecular target: T1, Discoidin domain-containing receptor 2 (Homo sapiens) (UniProt Q16832); settings: at 1 µM
T1 sequence (whole entry): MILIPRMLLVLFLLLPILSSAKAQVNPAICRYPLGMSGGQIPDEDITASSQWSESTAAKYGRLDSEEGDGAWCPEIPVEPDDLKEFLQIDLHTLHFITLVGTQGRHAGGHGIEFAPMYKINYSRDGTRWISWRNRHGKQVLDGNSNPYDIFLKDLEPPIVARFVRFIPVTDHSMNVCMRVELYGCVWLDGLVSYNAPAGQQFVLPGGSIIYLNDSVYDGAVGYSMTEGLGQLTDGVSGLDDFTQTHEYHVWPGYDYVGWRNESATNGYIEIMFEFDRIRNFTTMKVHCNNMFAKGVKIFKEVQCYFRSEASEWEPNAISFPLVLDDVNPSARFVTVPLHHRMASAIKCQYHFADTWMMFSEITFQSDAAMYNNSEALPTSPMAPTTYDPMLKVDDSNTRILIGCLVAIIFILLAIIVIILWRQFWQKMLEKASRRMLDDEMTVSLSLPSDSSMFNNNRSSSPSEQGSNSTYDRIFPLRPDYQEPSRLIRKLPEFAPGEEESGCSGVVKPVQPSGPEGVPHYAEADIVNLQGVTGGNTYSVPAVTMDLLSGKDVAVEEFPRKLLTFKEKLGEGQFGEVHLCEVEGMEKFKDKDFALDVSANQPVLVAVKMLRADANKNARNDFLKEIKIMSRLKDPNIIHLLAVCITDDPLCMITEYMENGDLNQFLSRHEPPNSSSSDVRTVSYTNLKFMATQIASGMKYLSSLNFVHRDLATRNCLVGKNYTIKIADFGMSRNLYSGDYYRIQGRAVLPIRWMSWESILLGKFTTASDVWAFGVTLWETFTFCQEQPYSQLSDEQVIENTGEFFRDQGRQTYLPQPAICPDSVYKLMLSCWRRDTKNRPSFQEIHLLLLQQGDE

[7] = molecular target: Epidermal growth factor receptor (Homo sapiens) (UniProt P00533); settings: at 10 µM
[8] = molecular target: Ephrin type-A receptor 2 (Homo sapiens) (UniProt P29317); settings: at 1 µM
[9] = molecular target: T2, Ephrin type-A receptor 3 (Homo sapiens) (UniProt P29320); settings: at 1 µM
T2 sequence (whole entry): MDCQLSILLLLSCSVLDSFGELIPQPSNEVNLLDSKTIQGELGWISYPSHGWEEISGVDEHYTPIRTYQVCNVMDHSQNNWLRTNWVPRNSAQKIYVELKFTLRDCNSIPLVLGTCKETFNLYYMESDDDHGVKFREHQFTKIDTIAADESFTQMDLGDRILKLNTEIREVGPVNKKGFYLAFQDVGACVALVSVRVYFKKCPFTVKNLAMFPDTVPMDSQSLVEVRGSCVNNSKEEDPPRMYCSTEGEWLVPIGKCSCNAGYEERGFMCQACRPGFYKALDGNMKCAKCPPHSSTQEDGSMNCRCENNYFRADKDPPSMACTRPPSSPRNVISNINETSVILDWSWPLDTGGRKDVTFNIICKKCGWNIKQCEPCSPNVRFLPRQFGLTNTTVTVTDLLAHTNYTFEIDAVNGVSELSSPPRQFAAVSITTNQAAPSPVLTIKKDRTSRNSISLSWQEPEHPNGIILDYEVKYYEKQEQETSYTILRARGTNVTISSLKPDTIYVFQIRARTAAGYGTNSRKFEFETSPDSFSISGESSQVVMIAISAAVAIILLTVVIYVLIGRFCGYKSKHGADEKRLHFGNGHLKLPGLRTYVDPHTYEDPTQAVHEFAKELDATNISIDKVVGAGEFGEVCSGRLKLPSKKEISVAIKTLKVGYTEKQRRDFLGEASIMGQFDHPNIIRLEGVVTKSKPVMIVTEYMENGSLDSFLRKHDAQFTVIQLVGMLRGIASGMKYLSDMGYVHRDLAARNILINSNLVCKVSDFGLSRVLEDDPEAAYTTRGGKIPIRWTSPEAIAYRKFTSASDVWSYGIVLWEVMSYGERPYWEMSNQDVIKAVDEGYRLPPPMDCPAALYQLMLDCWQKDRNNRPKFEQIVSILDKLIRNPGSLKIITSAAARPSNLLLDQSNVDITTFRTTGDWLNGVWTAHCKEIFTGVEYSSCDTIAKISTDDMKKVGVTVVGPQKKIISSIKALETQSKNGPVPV

[10] = molecular target: Ephrin type-A receptor 4 (Homo sapiens) (UniProt P54764); settings: at 1 µM
[11] = molecular target: Glycogen synthase kinase-3 alpha (Homo sapiens) (UniProt P49840); settings: at 1 µM
[12] = molecular target: Glycogen synthase kinase-3 beta (Homo sapiens) (UniProt P49841); settings: at 1 µM
[13] = molecular target: Protein kinase C zeta type (Homo sapiens) (UniProt Q05513); settings: at 10 µM
[14] = molecular target: Protein kinase C theta type (Homo sapiens) (UniProt Q04759); settings: at 1 µM
[15] = molecular target: T3, Protein kinase C iota type (Homo sapiens) (UniProt P41743); settings: at 1 µM
T3 sequence (whole entry): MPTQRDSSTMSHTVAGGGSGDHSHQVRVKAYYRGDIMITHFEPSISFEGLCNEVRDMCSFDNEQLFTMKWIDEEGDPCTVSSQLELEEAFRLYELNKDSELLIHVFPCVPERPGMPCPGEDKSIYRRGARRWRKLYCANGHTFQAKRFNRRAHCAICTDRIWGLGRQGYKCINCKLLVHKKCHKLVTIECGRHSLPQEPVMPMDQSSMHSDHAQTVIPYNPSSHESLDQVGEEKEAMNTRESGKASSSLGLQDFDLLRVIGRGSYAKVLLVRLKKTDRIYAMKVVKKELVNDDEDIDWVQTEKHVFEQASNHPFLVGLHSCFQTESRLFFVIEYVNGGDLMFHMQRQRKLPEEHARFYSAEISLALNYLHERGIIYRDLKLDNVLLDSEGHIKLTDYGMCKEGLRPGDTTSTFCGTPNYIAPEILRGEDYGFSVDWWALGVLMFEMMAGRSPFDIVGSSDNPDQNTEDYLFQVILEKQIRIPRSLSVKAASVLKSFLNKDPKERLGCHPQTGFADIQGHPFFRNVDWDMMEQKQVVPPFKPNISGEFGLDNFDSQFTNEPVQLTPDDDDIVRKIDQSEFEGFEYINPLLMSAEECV

[16] = molecular target: T3, Protein kinase C iota type (Homo sapiens); settings: at 10 µM
[17] = molecular target: cGMP-dependent protein kinase 1 (Homo sapiens) (UniProt Q13976); settings: at 1 µM
[18] = molecular target: Serine/threonine-protein kinase pim-2 (Homo sapiens) (UniProt Q9P1W9); settings: at 1 µM
[19] = molecular target: Serine/threonine-protein kinase pim-2 (Homo sapiens) (UniProt Q9P1W9); settings: at 10 µM
[20] = molecular target: Serine/threonine-protein kinase pim-3 (Homo sapiens) (UniProt Q86V86); settings: at 1 µM
[21] = molecular target: Serine/threonine-protein kinase PLK1 (Homo sapiens) (UniProt P53350); settings: at 1 µM
[22] = molecular target: Serine/threonine-protein kinase PLK3 (Homo sapiens) (UniProt Q9H4B4); settings: at 1 µM
[23] = molecular target: Serine/threonine-protein kinase PLK3 (Homo sapiens) (UniProt Q9H4B4); settings: at 10 µM
[24] = molecular target: Rho-associated protein kinase 1 (Homo sapiens) (UniProt Q13464); settings: at 1 µM
[25] = molecular target: Rho-associated protein kinase 2 (Homo sapiens) (UniProt O75116); settings: at 1 µM
[26] = molecular target: Proto-oncogene tyrosine-protein kinase ROS (Homo sapiens) (UniProt P08922); settings: at 1 µM
[27] = molecular target: Mitogen-activated protein kinase 11 (Homo sapiens) (UniProt Q15759); settings: at 10 µM
[28] = molecular target: T4, Mitogen-activated protein kinase 12 (Homo sapiens) (UniProt P53778); settings: at 10 µM
T4 sequence (whole entry): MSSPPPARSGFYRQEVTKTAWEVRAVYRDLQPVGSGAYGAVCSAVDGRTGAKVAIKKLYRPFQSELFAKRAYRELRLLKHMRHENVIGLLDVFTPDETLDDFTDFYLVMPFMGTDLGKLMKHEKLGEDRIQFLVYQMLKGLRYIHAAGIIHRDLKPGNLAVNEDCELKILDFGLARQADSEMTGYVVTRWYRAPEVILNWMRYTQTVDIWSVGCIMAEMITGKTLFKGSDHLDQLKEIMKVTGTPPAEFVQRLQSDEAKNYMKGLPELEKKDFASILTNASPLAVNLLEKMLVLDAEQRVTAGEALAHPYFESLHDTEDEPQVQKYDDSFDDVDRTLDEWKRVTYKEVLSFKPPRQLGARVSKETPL

[29] = molecular target: SRSF protein kinase 1 (Homo sapiens) (UniProt Q96SB4); settings: at 10 µM
[30] = molecular target: Tyrosine-protein kinase SYK (Homo sapiens) (UniProt P43405); settings: at 1 µM

With `CCN(CC)CCNC(=O)c1c(C)[nH]c(/C=C2\C(=O)Nc3ccc(Cl)cc32)c1C` the residual activity [1] was inactive: 103%, the residual activity [2] was 93% and the residual activity [3] was 86%. It also gave a residual activity [4] of 113%, a residual activity [5] of 88% and a residual activity [6] of 94%. It also gave a residual activity [7] of 110%, a residual activity [8] of 94% and a residual activity [9] of 94%. For the same compound, the residual activity [10] was 101%, the residual activity [11] was 104% and the residual activity [12] was 87%. For the same compound, the residual activity [13] was 107%, the residual activity [14] was 102% and the residual activity [15] was inactive: 84%. For the same compound, the residual activity [16] was 79%, the residual activity [17] was 89% and the residual activity [18] was 99%. For the same compound, the residual activity [19] was 92%, the residual activity [20] was 92% and the residual activity [21] was 92%. For the same compound, the residual activity [22] was inactive: 94%, the residual activity [23] was 95% and the residual activity [24] was 101%. For the same compound, the residual activity [25] was 86%, the residual activity [26] was 106% and the residual activity [27] was 92%. It also gave a residual activity [28] of 92%, a residual activity [29] of 94% and a residual activity [30] of 92%.
